From patent US10011585B2, “Factor XIa inhibitors” (Merck Sharp & Dohme Corp., priority 2014, dated 2018)

Chains of the proteins cited; added tags and fusions are not shown. Residues count along the entry.
UniProt P03951, 388-625 limits assumed: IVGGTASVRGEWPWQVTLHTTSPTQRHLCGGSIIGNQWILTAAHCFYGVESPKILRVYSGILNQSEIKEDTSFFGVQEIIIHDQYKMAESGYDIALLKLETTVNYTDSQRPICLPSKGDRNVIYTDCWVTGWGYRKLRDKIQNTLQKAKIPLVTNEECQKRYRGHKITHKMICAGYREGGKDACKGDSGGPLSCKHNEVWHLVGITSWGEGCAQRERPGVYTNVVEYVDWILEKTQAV
UniProt P03951, 19-387 partner limits assumed: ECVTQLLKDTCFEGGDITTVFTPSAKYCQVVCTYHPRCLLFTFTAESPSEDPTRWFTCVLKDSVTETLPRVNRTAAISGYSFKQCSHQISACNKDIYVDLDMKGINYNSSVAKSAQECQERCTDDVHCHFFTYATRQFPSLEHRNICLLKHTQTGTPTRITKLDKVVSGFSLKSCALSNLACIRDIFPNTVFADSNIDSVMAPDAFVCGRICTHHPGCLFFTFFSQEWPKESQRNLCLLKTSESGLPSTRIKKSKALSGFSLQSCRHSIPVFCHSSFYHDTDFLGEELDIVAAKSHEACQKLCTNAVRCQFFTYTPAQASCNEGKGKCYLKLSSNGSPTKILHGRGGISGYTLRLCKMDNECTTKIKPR

Molecular target: human Factor XIa (Homo sapiens, UniProt P03951)
Test: Factor XIa Assay
Settings: read-out: F11a IC50, Examples 1-19 table
Method: The effectiveness of a compound of the present invention as an inhibitor of Coagulation Factor XIa can be determined using a relevant purified serine protease, and an appropriate synthetic substrate. The rate of hydrolysis of the chromogenic or fluorogenic substrate by the relevant serine protease was measured both in the absence and presence of compounds of the present invention. Assays were conducted at room temperature or at 37° C. […] A decrease in the rate of fluorescence change in the presence of inhibitor is indicative of enzyme inhibition. Such methods are known to one skilled in the art. […]
Factor XIa determinations were made in 50 mM HEPES buffer at pH 7.4 containing 150 mM NaCl, 5 mM CaCl2, and 0.1% PEG 8000 (polyethylene glycol; JT Baker or Fisher Scientific). Determinations were made using purified human Factor XIa at a final concentration of 40 pM (Sekisui Diagnostics) and the synthetic substrate, Z-Gly-Pro-Arg-AFC, TFA salt (Sigma #C0980) at a concentration of 100 μM.
Activity assays were performed by diluting a stock solution of substrate at least tenfold to a final concentration ≤0.1 Km into a solution containing enzyme or enzyme equilibrated with inhibitor. Times required to achieve equilibration between enzyme and inhibitor were determined in control experiments. Initial velocities of product formation in the absence (Vo) or presence of inhibitor (Vi) were measured. […]

IC50	Structure (SMILES)
27.9 nM	N#Cc1ccc(Cl)cc1-c1ccc([C@H](Cc2ccccc2)c2nc3cc(C(=O)O)ccc3[nH]2)[n+]([O-])c1
25.4 nM	N#Cc1ccc(Cl)cc1-c1ccc([C@@H](Cc2ccccc2)c2nc3cc(C(=O)O)ccc3[nH]2)[n+]([O-])c1
